Assay results as given in article PMC7597557 (PLoS Pathogens, 2020).

Columns and labels:
[1] = In vitro epitope processing (peptide degradation) assay in macrophage lysosomal extracts, mass spectrometry; conditions: 2 nmol 34-mer, 15 ug macrophage lysosomal extract, 37C, LC-MS, one representative experiment
[2] = In vitro epitope processing (peptide degradation) assay in BMDC lysosomal extracts, mass spectrometry; conditions: 37C, pH4, LC-MS

## CC[C@H](C)[C@H](N)C(=O)N[C@@H](CCSC)C(=O)N[C@@H](Cc1ccc(O)cc1)C(=O)N[C@@H](CC(N)=O)C(=O)N[C@@H](Cc1ccc(O)cc1)C(=O)N1CCC[C@H]1C(=O)N[C@H](C(=O)N[C@@H](CCSC)C(=O)O)[C@@H](C)O [A10T] (H-IMYNYPTM-OH)
[1]; 2 minutes, pH4 degradation buffer
  Production of TB10.4_4−11 epitope from the 34-mer, % of total amount of peptides: none detected
[1]; 10 minutes (peak), pH4
  Production of TB10.4_4−11 epitope from the 34-mer, % of total amount of peptides: 0.147%
[1]; 30 minutes, pH4
  Production of TB10.4_4−11 epitope from the 34-mer, % of total amount of peptides: 0.09%
[1]; 60 minutes, pH4
  Production of TB10.4_4−11 epitope from the 34-mer, % of total amount of peptides: 0.067%
[2]; 10 and 30 minutes, BMDC lysosomal extract
  Production of TB10.4_4−11 epitope from the 34-mer (comparison in words): similarly produced
[2]; 2 minutes, 2 nmol 34-mer, 15 ug BMDC lysosomal extract
  Production of TB10.4_4−11 epitope from the 34-mer: not detected
[2]; after 30 minutes within a 1-hour degradation, BMDC lysosomal extract, one representative experiment
  Production of TB10.4_4−11 epitope from the 34-mer, final level reached: 0.252%

Peptide text beside a SMILES is read from it.
